TSG101-PTAP inh = blocks PTAP/TSG101 interaction to inhibit HIV-1 budding. Q99816. Fluorescence polarization, FITC-PTAP peptide / Tsg101 binding. Potency, µM (highest dose often 115 µM), hits mostly inhibitors. 340,000 tested, under 10 active. AID 493005; active = well fitted inhibition curve with a large enough effect in the main read-out, with a control signal flat, not every such curve was filed as active; inconclusive = small, poorly fitted or top-dose-only effect, or effect the other way, or a change in a side signal; inactive = no such curve, though single readings can be large or run the other way
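Steps: Tsg101 binding domain dispensed (10 uM final), compounds pinned in DMSO, FITC-labeled PTAP-motif peptide added (50 nM final); after 20 min binding at room temperature, polarization measured.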
Nrf2 block = blocks Nrf2 signaling | Potency, µM (highest dose often 46 µM), usual class: inhibitors | A549 ARE-Fluc reporter, luciferase luminescence, 18-24 h | AID 504444 | actives 2.1% (n = 360,000); also: nearly all actives have a fitted effect of over 60% in size
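In this cell-based qHTS, ARE-driven firefly luciferase in A549 cells reports Nrf2 activity; the luminescent signal after BugLite lysis is the measured value, with a prior CellTiter-Fluor read for cell health.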
GRP78 ERSR act = induces the endoplasmic reticulum stress response in human glioma cells; U87-MG GRP78 promoter luciferase reporter, 16 h; AID 602332; actives 0.02% (n = 420,000); Potency, µM, actives largely listed as activators; also: series mostly up to about 76 µM; nearly all actives have a fitted effect of over 35% in size
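ERSR induction read as luciferase luminescence (Bright-Glo, 10 min at room temperature) in stably transfected human U87-MG glioma cells exposed to compounds for 16 h, using GRP78 as sensor.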
Nrf2 activator = activates Nrf2 signaling; AREc32 ARE-luciferase reporter (MCF7-derived line), luminescence, 24 h; Potency, µM (titrated, usually from 46.1 µM), hits mostly activators; actives 0.31% (n = 410,000); also: nearly all actives have a fitted effect of over 65% in size
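Luciferase luminescence (Steady-Glo, 30 min at room temperature) served as the read-out of ARE activation in AREc32 cells treated with compounds for 24 hr at 37 deg C.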
A549 tox-1 = kills or reduces viability of A549 cells in Nrf2 counter-screen. A549 ARE-Fluc cells, CellTiter-Fluor viability, 18-24 h. Potency, µM (top dose mostly 46 µM), hits mostly inhibitors. actives 0.16% (n = 390,000). AID 504648
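A549 ARE-Fluc cells in 5% FBS OPTI-MEM, 5000 cells/well, rested 2 h then exposed to compounds in concentration-response for 18-24 h at 37 °C. Viability by CellTiter-Fluor fluorescence (Ex 405/Em 525) after 30 min; luciferase luminescence (BugLite, 15 min, RT) read afterwards.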
miR-21 reporter = miR-21 reporter, rising signal. HeLa miR-21 FLuc reporter, luciferase, 48 h. Potency, µM (titrated, usually from 38.3 µM). 340,000 tested, under 10 active. AID 2288; active = well fitted rising curve with a large enough effect; inconclusive = small, poorly fitted or top-dose-only effect; inactive = no such curve, though single readings can be large or run the other way;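 also: miR-21 action dims this reporter so a rising signal means less miR-21 action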
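HeLa cells endogenously expressing miR-21, stably carrying CMV-driven firefly luciferase with a downstream miR-21 binding site, 2000 cells/well. Titrations up to approximately 40 uM, 48 hours; luciferase luminescence read.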
FLuc counter 3 = blocks purified firefly luciferase in Nrf2 counterscreen; shares compounds with Nrf2 block; purified firefly luciferase, luminescence inhibition; Potency, µM (series often up to 57.5 µM), hits mostly inhibitors; actives 4% (n = 1,400); AID 720522; also: nearly all actives have a fitted effect of over 65% in size
A549 tox-2 = toxic to A549 ARE-Fluc cells in Nrf2 counterscreen. Potency, µM (top dose mostly 46.1 µM), most hits filed as inhibitors. shares compounds with Nrf2 block. actives 2% (n = 1,400). A549 ARE-Fluc cells, cytotoxicity counterscreen. AID 720523;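 also: cells exposed to compounds for 18 to 24 hours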
Nrf2 ARE inh = Nrf2 inhibition confirmed, A549 ARE-luciferase; Potency, µM (top dose mostly 46.1 µM), hits mostly inhibitors; shares compounds with Nrf2 block; A549 ARE-firefly luciferase reporter, luminescence; AID 720524; actives 74% (n = 1,400); also: nearly all actives have a fitted effect of over 65% in size
Hits are given with their value; – = inactive; ? = inconclusive; · = not tested or not shown. Shown are actives, neighbours in structure and some others; about 2.1% of the full set was active somewhere. Unless noted, calls follow the shape of the dose curve; as a rule, active = well fitted curve in the direction sought with a large enough effect; inconclusive = small, poorly fitted or top-dose-only effect, or another doubt; inactive = no such curve, though single readings can be large; an effect the other way counts as inactive or inconclusive.

SMILES	TSG101-PTAP inh	Nrf2 block	GRP78 ERSR act	Nrf2 activator	A549 tox-1	miR-21 reporter	FLuc counter 3	A549 tox-2	Nrf2 ARE inh
Cc1c(C(=O)NCCN2CCC(c3ccccc3)CC2)cnn1-c1nccc(-c2cccs2)n1	·	·	–	·	·	·	·	·	·
Cc1ccnc(NC(=O)CCCOc2cc(=O)n(C)c3ccccc23)c1	–	4.11µM	?	–	?	–	–	?	5.8µM
S=c1ncc2n[nH]nc2[nH]1	·	·	–	·	·	·	·	·	·
CN(c1ccc(C(=O)N2CCN(Cc3ccc4c(c3)OCO4)CC2)cc1)S(=O)(=O)c1ccccc1	–	6.51µM	–	–	–	–	–	–	9.2µM
O=[N+]([O-])c1ccc(CN2CCN(c3ccc([N+](=O)[O-])cc3)CC2)cc1	–	7.31µM	–	–	–	–	–	–	·
CCCCCCCCCCCCCCCC[n+]1ccc(/C=C/c2c[nH]c3ccccc23)cc1	·	·	–	·	·	·	?	?	7.31µM
OCC[n+]1ccc(/C=C/c2c[nH]c3ccccc23)cc1	?	6.51µM	–	–	?	–	–	?	8.2µM
COc1cc(/C=C2\CC/C(=C\c3cc(OC)c(OC)c(OC)c3)C2=O)cc(OC)c1OC	–	–	–	–	–	–	·	·	·
COc1cc(/C=C2\COC/C(=C\c3cc(OC)c(OC)c(OC)c3)C2=O)cc(OC)c1OC	–	5.8µM	–	–	–	?	–	–	0.116µM
CCN(C(=O)c1ccc(C(C)(C)C)cc1)c1nnc(Cn2nnc3ccccc32)s1	–	5.8µM	–	–	?	–	–	–	6.51µM
COc1ccc(COC(=O)c2[nH]c3c(c2C)C(=O)CC(c2ccc(OC)c(OC)c2)C3)cc1 (stereo not given)	·	6.51µM	–	–	–	–	–	–	6.51µM
COc1cc(C2CC(=O)c3c([nH]c(C(=O)OCC4CCCCC4)c3C)C2)cc(OC)c1OC (stereo not given)	·	2.31µM	–	–	–	?	–	–	4.61µM
O=S(=O)(c1ccccc1C(F)(F)F)N1CCN(c2nc(-c3cccs3)nc3ccccc23)CC1	·	–	–	·	–	·	·	·	·
COc1ccc(OC)c(Nc2ncnc3sccc23)c1	–	–	–	–	–	–	·	·	·
COc1cc(CN(C)c2ncnc3sccc23)ccc1OC(F)F	–	9.2µM	–	–	–	–	–	–	8.2µM
COc1cc(OC)cc(C(=O)NNC(=O)c2ccccn2)c1	–	8.2µM	–	?	?	–	–	–	7.31µM
CCCN1CNc2c(c(=O)[nH]c(=S)n2CCc2cccc(C)c2C)C1	·	–	·	·	–	·	·	·	·
O=Cc1ccc(N2CCOCC2)cc1	·	·	–	·	·	·	·	·	·
CCCn1c(NC(=O)c2cccc(S(=O)(=O)N3CCCC3)c2)nc2ccccc21	–	7.31µM	–	–	?	?	–	?	7.31µM
Cc1ccc(S(=O)(=O)N2CCN(c3nc(-c4ccc(CN5CCNCC5)s4)nc4ccccc34)CC2)cc1	·	–	–	·	–	·	·	·	·
CN(C)S(=O)(=O)c1ccc(N2CCN(S(=O)(=O)c3ccc(F)cc3)CC2)c(Cl)c1	–	5.8µM	–	–	–	?	–	–	?
O=C(NCCc1ccccc1)[C@@H]1CC=C[C@@H]2CCN(C3CC3)C(=O)[C@@H]21	·	·	–	·	·	·	·	·	·
Nc1ccc(/C=C/c2nccc3ccccc23)cc1	·	·	–	·	·	·	2.69µM	–	?
COc1cc(OC)c(C=Cc2ccncn2)c(OC)c1	·	·	–	–	·	·	·	·	·
COc1cc(OC)c(/C=C/c2ccccn2)c(OC)c1	·	·	–	·	·	·	–	–	6.51µM
COc1ccc(/C=C/c2ccc3ccccc3n2)cc1OC	·	·	–	·	·	·	·	·	·
